The values that follow come from patent publication US20080305519A1, “Biochemical method for specific protein labeling” (priority 2006, published 2008).

The assay relates to tubulin. Description: Re-assembly of labeled tubulin to high MW tubulin oligomers. To be noted: 10 μM; prolonged incubation at 37° C.; data not shown. Format: biochemical, rat.

For the compound `COc1cc2c(c(OC)c1OC)-c1ccc(OC)c(=O)cc1[C@@H](NC(C)=O)CC2` [colchicine], the “formation of high MW tubulin oligomers” value is recorded as “completely abolished”.
